Values joined by “and” are separate entries in the source; they are usually repeats but may differ in a detail not shown here. Identical values can stand only once.
Tested on: intracranial ST1360B PDX tumors
Test: Intracranial ST1360B PDX tumor model
Format: in vivo, mouse
Conditions: MRI, individual mice
Protocol: The viability of total cells was greater than 80%. […] The cells were kept on ice until inoculation.
Drugs were diluted in sterile saline before each dosing. […] The dosing volume was 5.0 mL/kg.
The fixative: tissue ratio was at least 20:1.
Image analysis was performed using Horos.

trastuzumab-emtansine [T-DM1, reference compound]
Brain edema score day 3 (scale 0-4 (0 no, 4 massive brain edema), day 3 post initiation of therapy): 1 and 0 (3×) and 2 | Brain edema score day 7 (scale 0-4, day 7): 2 (2×) and 1 (3×) | Brain edema score day 10 (scale 0-4, day 10): 2 and 3 (2×) and 1 | Brain edema score day 14 (scale 0-4, day 14): 3 (2×) and 2 (3×) | Brain edema score day 21 (scale 0-4, day 21): 2 | Brain edema score day 28 (scale 0-4, day 28): 3 | Brain edema final score (scale 0-4, last MR scan): 3 (4×) and 2

Reference: patent US20210206875A1, “ERBB-2 TARGETING AGENT AND A BISPECIFIC ANTIBODY WITH ANTIGEN-BINDING SITES THAT BIND AN EPITOPE ON AN EXTRACELLULAR PART OF ERB-2 AND ERBB-3, FOR TREATMENT OF AN INDIVIDUAL WITH AN ERBB-2, ERBB-2/ERBB-3 POSITIVE TUMOUR” (Merus N.V., priority 2017, published 2021)
